Literature values, collected in patent US5420106A, “Method and composition having enhanced alpha-hydroxy acid skin permeation and retention” (priority 1994, dated 1995).

Settings: hydrated skin; cited from earlier work

In the case of CO [methanol], the “permeation or permeation rate on hydration of skin” value is listed as “permeation is unaltered by hydration”.
